In the supplement of paper PMC11616607 one finds drug sensitivity score data, which are given here for one compound.

Holding throughout (assay): drug sensitivity score (DSS) from 5-point dose-response viability curve (DSS (area-under-curve based score)); higher = more sensitive (stronger growth inhibition or killing); extreme values may be limits of the assay
Common to all, as to conditions: exposure time: 72 h; concentration range: 5 concentrations over 10,000-fold range

For one assay, the system named is Ovsaho. In outline: (§1)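 Ovarian cancer and normal ovarian cell lines were tested in 384-well plates, with drugs dispensed acoustically (Echo 550) in DMSO or water at five concentrations covering a 10,000-fold range. After 1,500 cells per well were added, plates were incubated for 3 days at 37°C and 5% CO2, and viability was read by CellTiter-Glo luminescence on a PHERAstar FS. Breeze software gave a drug sensitivity score for each cell line and drug, where a higher score means greater sensitivity. A value of zero means no response.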

Another assay has as its system COV318. The method in brief:
as §1

The subject of the next assay is OVCAR4. The method in brief: as §1
The subject of a further assay is Kuramochi. In outline: as §1
In another assay the test system is OVCAR8. In outline:
as §1

The test system of another assay is COV362. The method in brief: as §1
Another assay relates to CAOV3. In outline: as §1
Another assay concerns HOSE1C. The method in brief: as §1
The subject of another assay is OVCAR5. The method in brief: as §1
The next assay has as its system JHOS2. The method in brief: as §1
The subject of the next assay is HOSE2C. The method in brief: as §1
Another assay concerns OV90. In outline:
as §1

As to `NCc1ccc(OCCCc2sc(-c3ccc4c(c3)/C(=N/Nc3nc5ccccc5s3)CCC4)nc2C(=O)O)cc1` [WEHI-539], the drug sensitivity score in the assay on Ovsaho was found to be 2.4; in the assay on COV318, 0; in the assay with OVCAR4, 0.7; in the assay with Kuramochi, 0; in the assay with OVCAR8, 0; in the assay with COV362, 0. The drug sensitivity score worked out at 0 in the assay with CAOV3; 4.3 in the assay on HOSE1C; 0 with OVCAR5; 0 in the assay with JHOS2; 1.9 in the assay with HOSE2C; 0 in the assay with OV90.
